Experimental data reported in patent US20260098026A1, “M4 ACTIVATORS/MODULATORS AND USES THEREOF” (Cerevel Therapeutics, LLC, priority 2022, published 2026).

The chains behind the UniProt entries cited, without tags or fusion partners.
UniProt P11229, whole entry: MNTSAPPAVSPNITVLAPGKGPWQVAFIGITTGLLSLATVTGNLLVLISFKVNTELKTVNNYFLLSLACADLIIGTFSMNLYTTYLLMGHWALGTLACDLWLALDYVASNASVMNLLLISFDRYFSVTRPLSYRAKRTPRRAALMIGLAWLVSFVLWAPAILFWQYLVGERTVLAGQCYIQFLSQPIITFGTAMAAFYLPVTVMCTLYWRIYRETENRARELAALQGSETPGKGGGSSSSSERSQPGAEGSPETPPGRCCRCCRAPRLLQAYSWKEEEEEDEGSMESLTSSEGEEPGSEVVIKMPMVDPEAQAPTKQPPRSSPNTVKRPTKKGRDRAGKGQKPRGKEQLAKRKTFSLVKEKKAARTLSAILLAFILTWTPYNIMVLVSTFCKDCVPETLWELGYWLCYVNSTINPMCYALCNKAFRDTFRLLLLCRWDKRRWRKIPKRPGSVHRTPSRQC
UniProt P20309, whole entry: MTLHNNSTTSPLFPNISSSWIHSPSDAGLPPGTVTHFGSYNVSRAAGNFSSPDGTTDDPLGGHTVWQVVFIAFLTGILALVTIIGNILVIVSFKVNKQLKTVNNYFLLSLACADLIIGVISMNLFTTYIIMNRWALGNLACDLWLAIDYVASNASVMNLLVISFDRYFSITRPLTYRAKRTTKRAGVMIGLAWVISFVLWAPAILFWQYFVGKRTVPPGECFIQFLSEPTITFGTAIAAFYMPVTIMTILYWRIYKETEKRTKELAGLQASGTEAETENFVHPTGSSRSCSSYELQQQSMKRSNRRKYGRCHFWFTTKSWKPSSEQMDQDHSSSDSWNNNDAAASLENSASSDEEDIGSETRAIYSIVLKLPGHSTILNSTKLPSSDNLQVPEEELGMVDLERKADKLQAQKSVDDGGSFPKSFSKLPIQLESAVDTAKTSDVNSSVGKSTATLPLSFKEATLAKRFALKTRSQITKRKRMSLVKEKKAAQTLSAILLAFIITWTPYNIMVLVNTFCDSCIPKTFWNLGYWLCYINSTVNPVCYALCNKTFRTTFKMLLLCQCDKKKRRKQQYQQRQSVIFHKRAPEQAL
UniProt P08912, whole entry: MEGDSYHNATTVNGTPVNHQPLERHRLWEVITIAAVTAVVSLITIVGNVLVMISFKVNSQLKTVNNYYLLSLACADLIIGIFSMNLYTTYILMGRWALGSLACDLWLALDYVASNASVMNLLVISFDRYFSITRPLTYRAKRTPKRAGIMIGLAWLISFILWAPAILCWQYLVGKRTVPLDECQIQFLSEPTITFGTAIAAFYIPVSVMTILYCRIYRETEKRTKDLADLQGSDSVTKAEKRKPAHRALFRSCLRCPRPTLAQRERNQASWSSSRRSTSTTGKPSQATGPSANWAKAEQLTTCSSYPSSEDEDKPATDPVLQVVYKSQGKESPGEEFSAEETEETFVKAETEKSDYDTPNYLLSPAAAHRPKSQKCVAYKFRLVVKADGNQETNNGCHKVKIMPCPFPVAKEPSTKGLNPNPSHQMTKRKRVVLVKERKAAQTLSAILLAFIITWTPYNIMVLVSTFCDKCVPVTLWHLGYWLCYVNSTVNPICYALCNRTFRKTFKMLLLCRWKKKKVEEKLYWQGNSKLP
UniProt P08173, whole entry: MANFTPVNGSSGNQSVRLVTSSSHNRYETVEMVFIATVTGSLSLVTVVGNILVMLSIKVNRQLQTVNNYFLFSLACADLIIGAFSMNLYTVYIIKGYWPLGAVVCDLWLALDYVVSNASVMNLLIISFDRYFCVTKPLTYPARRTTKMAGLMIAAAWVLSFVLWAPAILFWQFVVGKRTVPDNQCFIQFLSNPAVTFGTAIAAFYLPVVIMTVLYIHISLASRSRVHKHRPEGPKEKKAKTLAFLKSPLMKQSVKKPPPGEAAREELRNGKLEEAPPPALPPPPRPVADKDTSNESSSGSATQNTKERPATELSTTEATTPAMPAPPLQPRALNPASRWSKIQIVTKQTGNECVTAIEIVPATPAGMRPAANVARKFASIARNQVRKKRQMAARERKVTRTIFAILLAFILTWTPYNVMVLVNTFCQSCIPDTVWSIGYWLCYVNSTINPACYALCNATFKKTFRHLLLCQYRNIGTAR

What was measured:
[1] = target: M1 muscarinic acetylcholine receptor (mAChR) (Homo sapiens, UniProt P11229); assay: FLIPR calcium assay (Fluo 8), M1-overexpressing CHO-K1 cells
Protocol: (§1) Stimulation of a Gq-coupled G-protein coupled receptors (GPCRs), result in an efflux of calcium from the endoplasmic reticulum to the cytoplasm (Berridge, 1993), thus rendering this assay appropriate for the assessment of M1, M3 and M5 receptors. CHO-K1 cells overexpressing the M1, M3, or M5 muscarinic acetylcholine receptor (mAChR) were dispensed at 15,000 cells per well in 30 μl volume to 384-well plates and grown overnight at 37° C. in a 5% CO2 atmosphere. Fluo-8 Solution, 10 μl per well, was added to each well and incubated for 30 minutes at 37° C. in a 5% CO2 atmosphere. Compounds diluted in Hanks' balanced salt solution (HBSS) were transferred to the cell assay plate at 10 μl per well, and then read on a FLIPR instrument. EC50 and Emax figures were calculated from the resulting data for each receptor subtype.

[2] = target: M3 muscarinic acetylcholine receptor (mAChR) (Homo sapiens, UniProt P20309); assay: FLIPR calcium assay (Fluo 8), M3-overexpressing CHO-K1 cells; settings: read-out: M3 EC50
Protocol: as §1

[3] = target: M5 muscarinic acetylcholine receptor (mAChR) (Homo sapiens, UniProt P08912); assay: FLIPR calcium assay (Fluo 8), M5-overexpressing CHO-K1 cells
Protocol: as §1

[4] = target: M4 mAChR (Homo sapiens, UniProt P08173); assay: cAMP TR-FRET assay with forskolin, M4-overexpressing CHO-K1 cells
From the text: The M2 and M4 mACh receptors are Gi-coupled receptors which, upon activation, produce a decrease in cAMP. Assays were developed that measured the potency and efficacy of compounds at the M2 or M4 mAChR using M2- or M4-overexpressing CHO-K1 cell lines. Time-resolved fluorescence resonance energy transfer (TR-FRET) technology was used, where signal occurs as a result of transfer of energy if the donor molecule is in close proximity to an acceptor molecule when the molecules have bound to the molecule of interest. The cAMP detection is a competition binding assay, where cAMP produced by cells competes for binding with the labeled donor molecule to the anti-cAMP acceptor antibody. Due to the low basal levels of cAMP in the CHO-K1 cell line, forskolin was used to increase cAMP levels to enable assessment of agonist activity at the mAChR of interest.

`CCOC(=O)N1CC2(CC[C@@H](N3CCC(c4cc(F)cnc4-c4cc[nH]n4)CC3)C2)C1` was tested, and the “M1 Emax (%)” value [1] was “** (“**” means 50 to 79.9%)”, the EC50 [2] was > 10 µM and the “M5 Emax (%)” value [3] was “*** (“***” means 19 to 49.9%)”. The “M4 Emax (%)” value [4] was “* (“*” means 80 to 100%)”.
